How the values were obtained:
[1] = Particle size analysis of fragmented particles (Microtrac small particle analyzer); format: physicochemical; settings: 100 mg ammonium bicarbonate/ml; ethyl acetate; ultrasonic irradiation
Description: A 50 mg sample of the lyophilized microspheres was suspended in 5 ml of 100 percent ethanol solution and cooled in an ice water bath to 0° C. With continuous cooling, the HRP porous particles were then exposed to an ultrasonic probe (Virtis Company Inc., Virsonic 300) for different times. Samples were analyzed for particle size diameter on a Microtrac Model 7995 Small Particle Analyzer (Leeds and Northrup).
The hemoglobin particles were suspended in ethyl acetate and fragmented by subjecting them to ultrasonic irradiation with cooling by an ice bath.

[2] = Diameter of particles by light microscopy; format: physicochemical
[3] = 5, 10 and 20 percent by weight of protein in 10 percent (w/v) ethylene-vinyl acetate in methylene chloride

## Bovine serum albumin [BSA]
[1]
  particles less than 1.7 micrometers in diameter: more than 60%
[2]; 100 mg ammonium bicarbonate/ml, after ultrasonic irradiation, virtually all the particles
  particle size under light microscopy: less than 1 micrometer
[2]; before sonication, range
  diameter of the porous spheres after lyophilization: 20-30 micrometers
[3]
  suspension stability: stable suspensions
